Measured values from PubChem BioAssay AID602274 (Sanford-Burnham Center for Chemical Genomics, 2012).
The list shows a part of the results, in another mix than the full data. Some salts or complexes appear as unconnected parts, following the source record. Activity calls are given as the source filed them. No stated cut-off is given here; in the data, active means survival enhancement above about 18%; inactive means the rest.

Experiment: compounds raising survival of dissociated human iPSCs – cell-based, ATPlite luminescence, primary screen (AID 602274);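 further: cells exposed to compounds for 16 hours before the ATP read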
Details: hiPSC single-cell survival, at 20 µM, active compounds read high, 100% = ROCK inhibitor wells, 0% = DMSO

| Structure (SMILES) | survival enhancement |
| --- | --- |
| CP(=O)(Nc1ccccc1F)Oc1ccccc1 (stereo unspecified) | inactive: -3.3% |
| O=C(OCCN1CCN(CCOCc2ccccc2)CC1)C(O)(c1ccccc1)c1ccccc1 | inactive: 3.6% |
| O=C(OC1CN2CCC1CC2)c1ccc([N+](=O)[O-])cc1 (stereo unspecified) | inactive: -0.3% |
| COc1ccc2c(c1O)-c1c(O)c(OC)cc3c1[C@H](C2)[N+](C)(C)CC3.O=[N+]([O-])c1cc([N+](=O)[O-])c([O-])c([N+](=O)[O-])c1[O-] | inactive: -1.2% |
| COc1ccccc1OP(C)(=O)Nc1ccc(Br)cc1 (stereo unspecified) | inactive: -0.7% |
| CN(C)CCOC(=O)C(O)(c1ccccc1)C1CCCC1 (stereo unspecified) | inactive: 0.2% |
| COc1ccc(OP(C)(=O)Nc2ccccn2)cc1 (stereo unspecified) | inactive: 1.9% |
| Cc1c(NP(C)(=O)Oc2ccc(C(C)C)cc2)c(=O)n(-c2ccccc2)n1C (stereo unspecified) | inactive: -1% |
| O=[N+]([O-])c1cc([N+](=O)[O-])c(Nc2ccccn2)c([N+](=O)[O-])c1 | inactive: -1.4% |
| CCc1ccc(OP(C)(=O)O)cc1 | inactive: -0.1% |
| COc1ccccc1OP(C)(=O)Nc1ccc(C)cc1C (stereo unspecified) | inactive: -1.9% |
| CP(=O)(Nc1ccccn1)Oc1ccccc1 (stereo unspecified) | inactive: -1.5% |
| Cc1cc(C)cc(OP(C)(=O)Nc2cccc(C(F)(F)F)c2)c1 (stereo unspecified) | inactive: -0.9% |
| O=C1C(O)=C([N+](=O)[O-])C(=O)C(O)=C1[N+](=O)[O-] | inactive: -0.8% |
| COc1ccc(OP(C)(=O)Nc2ccccc2Br)cc1 (stereo unspecified) | inactive: -0.1% |
| COc1ccccc1OP(C)(=O)Nc1ccc(C)c(C)c1 (stereo unspecified) | inactive: 5.1% |
| CCCCCCCCCCCCCCCC1C[N+](C)(C)CCOP(C)(=O)O1 (stereo unspecified) | inactive: 3.7% |
| CP(=O)(Nc1ccc(Cl)cc1Cl)Oc1ccccc1 (stereo unspecified) | inactive: -0.8% |
| CP(=O)(OCCOc1ccccc1)OCCOc1ccccc1 | inactive: 1% |
| CP(=O)(OC12CC3CC(CC(C3)C1)C2)OC12CC3CC(CC(C3)C1)C2 | inactive: 2.8% |
| CCOC(=O)c1ccc(NP(C)(=O)Oc2ccc(Cl)cc2)cc1 (stereo unspecified) | inactive: 4% |

| Structure (SMILES) | survival enhancement |
| --- | --- |
| COc1ccc(OP(C)(=O)Nc2ccc(Br)cc2)cc1 (stereo unspecified) | inactive: -1% |
| CCN(CC)CC(O)COC(=O)C(O)(c1ccccc1)C1CCCCC1 (stereo unspecified) | inactive: 2.6% |
| CCc1ccc(OP(C)(=O)Nc2cccnc2)cc1 (stereo unspecified) | inactive: 0.4% |
| CP(=O)(Oc1ccccc1)N1CCOC1=O (stereo unspecified) | inactive: 2.3% |
| O=C(OCCCN1CCCC1)C(O)(c1ccccc1)C1CCCCC1 (stereo unspecified) | inactive: -0.8% |
| COc1ccccc1OP(C)(=O)Nc1c(C)n(C)n(-c2ccccc2)c1=O (stereo unspecified) | inactive: -1.8% |
| CP(=O)(Nc1ccc(Cl)cc1)Oc1ccc(F)cc1 (stereo unspecified) | inactive: -0.8% |
| COc1ccccc1OP(C)(=O)Nc1ccccc1Br (stereo unspecified) | inactive: -0.4% |
| CC(C)(C)c1ccc(OP(C)(=O)O)cc1 | inactive: 4.4% |
| CN(C)C(=O)c1c([N+](=O)[O-])cc([N+](=O)[O-])cc1[N+](=O)[O-] | inactive: -2.4% |
| CP(=O)(Oc1ccccc1)OC(c1ccccc1)C(F)(F)F (stereo unspecified) | inactive: 0.5% |
| Cc1cccc(C)c1OP(C)(=O)Nc1ccc(SC(F)(F)F)cc1 (stereo unspecified) | inactive: -1.1% |
| Cc1ccc(Nc2c([N+](=O)[O-])cc([N+](=O)[O-])cc2[N+](=O)[O-])cc1 | inactive: -2.5% |
| CP(=O)(Nc1ccc(SC(F)(F)F)cc1)Oc1ccc(Cl)cc1 (stereo unspecified) | inactive: 0.2% |
| Cc1cc(C)cc(OP(C)(=O)Nc2ccc(SC(F)(F)F)cc2)c1 (stereo unspecified) | inactive: 1.6% |
| CP(=O)(NC(=O)Nc1ccccc1)Oc1ccccc1 (stereo unspecified) | inactive: -2.6% |
| CCc1ccc(OP(C)(=O)N2CCN(c3ccc([N+](=O)[O-])cc3)CC2)cc1 (stereo unspecified) | inactive: -0.4% |
| CCOP(C)(=S)SCC(=O)NC(C)C(=O)O (stereo unspecified) | inactive: 2.6% |
| CCOC(=O)c1ccc(NP(C)(=O)Oc2ccc(OC)cc2)cc1 (stereo unspecified) | inactive: -0.6% |
| O=[N+]([O-])c1cc([N+](=O)[O-])c(O)c([N+](=O)[O-])c1.c1ccc(Oc2ccncc2)cc1 | inactive: -0.1% |
| CP(=O)(Nc1ccccn1)Oc1ccc(Cl)cc1 (stereo unspecified) | inactive: -1.1% |

| Structure (SMILES) | survival enhancement |
| --- | --- |
| CCCCOc1ccc(C(=O)NCC2(N3CCCCC3)CCCCC2)cc1OC | inactive: -0.7% |
| CP(=S)(Nn1cnnc1)Oc1ccccc1 (stereo unspecified) | inactive: -3.2% |
| COc1ccccc1OP(C)(=O)Nc1ccccc1 (stereo unspecified) | inactive: 2.2% |
| CP(=O)(Nc1ccccc1Br)Oc1ccccc1 (stereo unspecified) | inactive: 1.3% |
| O=[N+]([O-])c1cc([N+](=O)[O-])c(Nc2cccnc2)c([N+](=O)[O-])c1 | inactive: -2.4% |
| COc1cc(C(=O)NCC2(N3CCOCC3)CCCCC2)ccc1OCC(C)C | inactive: -0.5% |
| Cc1cccc(C)c1OP(C)(N)=O (stereo unspecified) | inactive: 0.1% |
| CC(C)(C)c1ccc(OP(C)(=O)Nc2ccc(SC(F)(F)F)cc2)cc1 (stereo unspecified) | inactive: 1.9% |
| O=[N+]([O-])c1ccc2c(c1)C=Nc1ccccc1O2 | inactive: -0.3% |
| CCOC(=O)c1ccc(NP(C)(=O)Oc2ccccc2)cc1 (stereo unspecified) | inactive: 3.8% |
| Cc1ccc(NP(C)(=O)Oc2ccccc2)c(C)c1 (stereo unspecified) | inactive: -0.2% |
| COc1ccccc1OP(C)(=O)Nc1ccc(C)cc1 (stereo unspecified) | inactive: 4.8% |
| COc1ccc(OP(C)(=O)Nc2cccc(F)c2)cc1 (stereo unspecified) | inactive: 6.1% |
| COc1ccccc1OP(C)(=O)Nc1cc(Cl)ccc1C (stereo unspecified) | inactive: 2.7% |
| Cc1cc(C)cc(OP(C)(N)=O)c1 (stereo unspecified) | inactive: -0.3% |
| CCN(CC)CCCOC(=O)C(O)(c1ccccc1)c1ccccc1 | inactive: 0.1% |
| COc1ccccc1-c1ccccn1.O=[N+]([O-])c1cc([N+](=O)[O-])c(O)c([N+](=O)[O-])c1 | inactive: 5.1% |
| COc1ccccc1OP(C)(=O)Nc1cccc(Br)c1 (stereo unspecified) | inactive: -0.3% |
| COc1cc(C(=O)NCC2(N3CCOCC3)CCCCC2)cc(Cl)c1OC(C)C | inactive: -1.4% |
| Cc1cc(C)cc(OP(C)(=O)Nc2ccc(C)cc2C)c1 (stereo unspecified) | inactive: -1.4% |
| CCOC(=O)c1ccc(NP(C)(=O)Oc2cc(C)cc(C)c2)cc1 (stereo unspecified) | inactive: -0.8% |

| Structure (SMILES) | survival enhancement |
| --- | --- |
| Cc1cc(C)cc(OP(C)(=O)Nc2ccccn2)c1 (stereo unspecified) | inactive: -0.3% |
| CP(=O)(Nc1cccc(Br)c1)Oc1ccccc1 (stereo unspecified) | inactive: -0.4% |
| Cc1ccc(C)c(NP(C)(=O)Oc2ccccc2)c1 (stereo unspecified) | inactive: 0.9% |
| O=C(O)c1cccc(Nc2c([N+](=O)[O-])cc([N+](=O)[O-])cc2[N+](=O)[O-])c1 | inactive: -0.1% |
| CC1=NCCc2c1[nH]c1ccccc21.O=[N+]([O-])c1cc([N+](=O)[O-])c(O)c([N+](=O)[O-])c1 | inactive: 6.1% |
| CCOC(=O)C(CC)C1=NC(C)(C)Cc2ccccc21.O=[N+]([O-])c1cc([N+](=O)[O-])c(O)c([N+](=O)[O-])c1 (stereo unspecified) | inactive: -0.1% |
| CN(C)C1(CNC(=O)c2ccc(S(C)(=O)=O)cc2)CCCCC1 | inactive: -0.3% |
| CC1=C2N=C(C=C3N=C(C(C)=C4[N-][C@@](C)([C@@H]5N=C1[C@](C)(CCC(=O)NC[C@@H](C)OP(=O)([O-])O[C@H]1[C@@H](O)[C@@H](n6cnc7cc(C)c(C)cc76)O[C@@H]1CO)[C@H]5CC(N)=O)[C@@](C)(CC(N)=O)[C@@H]4CCC(N)=O)[C@@](C)(CC(N)=O)[C@@H]3CCC(N)=O)C(C)(C)[C@@H]2CCC(N)=O.[C-]#N.[Co+3] | inactive: -1.2% |
| O=[N+]([O-])c1cc([N+](=O)[O-])c(Nc2nnnn2CCO)c([N+](=O)[O-])c1 | inactive: 0.1% |
| COc1ccccc1OP(C)(=O)Nc1c(C)cccc1C (stereo unspecified) | inactive: 0.1% |
| CN1CCCCC1COC(=O)C1(O)c2ccccc2CCc2ccccc21 (stereo unspecified) | inactive: -0.5% |
| CCCOc1ccc(NP(C)(=O)Oc2ccc(Cl)cc2)cc1 (stereo unspecified) | inactive: -1.4% |
| CP(=O)(Nc1ccc(SC(F)(F)F)cc1)Oc1ccccc1 (stereo unspecified) | inactive: 1.1% |
| COc1ccc(-c2ccccn2)cc1.O=[N+]([O-])c1cc([N+](=O)[O-])c(O)c([N+](=O)[O-])c1 | inactive: -0.5% |
| O=[N+]([O-])c1cc([N+](=O)[O-])c(-n2nnc3ccccc32)c([N+](=O)[O-])c1 | inactive: -0.4% |
| CN(Cc1cccnc1)C(=O)COc1ccc(Cl)c(Cl)c1.O=[N+]([O-])c1cc([N+](=O)[O-])c(O)c([N+](=O)[O-])c1 | inactive: 1.7% |
| O=[N+]([O-])c1cc([N+](=O)[O-])c(-c2cnn(-c3ccccc3)c2)c([N+](=O)[O-])c1 | inactive: -0.5% |
| Cc1nc2ccc3ccccc3c2s1.O=[N+]([O-])c1cc([N+](=O)[O-])c(O)c([N+](=O)[O-])c1 | inactive: 4.6% |
